According to patent publication US9682983B2, “BMP inhibitors and methods of use thereof” (THE BRIGHAM AND WOMEN'S HOSPITAL, INC., priority 2013, dated 2017):

Each compound was assayed on TGF-β signaling activity (CAGA-Luc, human embryonic kidney 293T cells) (assay: Cell luciferase assay, TGFβ (293T CAGA-Luc, TGF-β1 ligand)). Details: HEK-293T, read-out: Cellular Assay IC50 (nM) TGFβ.
In the case of `N#Cc1cc(-c2cnc3c(-c4ccnc5ccccc45)cnn3c2)ccc1N1CCNCC1` [Compound 37, 2-(piperazin-1-yl)-5-(3-(quinolin-4-yl)pyrazolo[1,5-a]pyrimidin-6-yl)benzonitrile], the IC50 was 12100 nM. `N#Cc1cc(-c2cnc3c(-c4cccc5ncccc45)cnn3c2)ccc1N1CCNCC1` [Compound 38] showed an IC50 of 12700 nM. For `Fc1cc(-c2cnc3c(-c4ccnc5ccccc45)cnn3c2)ccc1N1CCNCC1` [Compound 39], the IC50 was 8040 nM. With `Fc1cc(-c2cnc3c(-c4cccc5ncccc45)cnn3c2)ccc1N1CCNCC1` [Compound 40] the IC50 was 12500 nM. Compound `c1ccc2c(-c3cnn4cc(-c5ccc(OCCN6CCNCC6)nc5)cnc34)ccnc2c1` [Compound 41, 4-(6-(6-(2-(piperazin-1-yl)ethoxy)pyridin-3-yl)pyrazolo[1,5-a]pyrimidin-3-yl)quinoline] has an IC50 of 16700 nM. For `c1cc(-c2cnn3cc(-c4ccc(OCCN5CCNCC5)nc4)cnc23)c2cccnc2c1` [Compound 42, 5-(6-(6-(2-(piperazin-1-yl)ethoxy)pyridin-3-yl)pyrazolo[1,5-a]pyrimidin-3-yl)quinoline], the IC50 was 39000 nM. Work on `CN1CCN(CCOc2ccc(-c3cnc4c(-c5ccnc6ccccc56)cnn4c3)cn2)CC1` [Compound 43, 4-(6-(6-(2-(4-methylpiperazin-1-yl)ethoxy)pyridin-3-yl)pyrazolo[1,5-a]pyrimidin-3-yl)quinoline] yielded an IC50 of 8300 nM. `CN1CCN(CCOc2ccc(-c3cnc4c(-c5cccc6ncccc56)cnn4c3)cn2)CC1` [Compound 44, 5-(6-(6-(2-(4-methylpiperazin-1-yl)ethoxy)pyridin-3-yl)pyrazolo[1,5-a]pyrimidin-3-yl)quinoline] was tested, and the IC50 was 58800 nM. `Clc1cc(-c2cnc3c(-c4ccnc5ccccc45)cnn3c2)ccc1OCCN1CCCCC1` [Compound 45, 4-(6-(3-chloro-4-(2-(piperidin-1-yl)ethoxy)phenyl)pyrazolo[1,5-a]pyrimidin-3-yl)quinoline] gave an IC50 of 18300 nM. With `Clc1cc(-c2cnc3c(-c4cccc5ncccc45)cnn3c2)ccc1OCCN1CCCCC1` [Compound 46] the IC50 was 53600 nM. For `[2H]c1ccc2c(-c3cnn4cc(-c5ccc(OCCN6CCCCC6)cn5)cnc34)cccc2n1` [Compound 47, 5-(6-(5-(2-(piperidin-1-yl)ethoxy)pyridin-2-yl)pyrazolo[1,5-a]pyrimidin-3-yl)-2-^2H-quinoline], the IC50 was 5250 nM. `Cc1ccc2c(-c3cnn4cc(-c5ccc(OCCN6CCNCC6)cn5)cnc34)cccc2n1` [Compound 50, 2-methyl-5-(6-(5-(2-(piperazin-1-yl)ethoxy)pyridin-2-yl)pyrazolo[1,5-a]pyrimidin-3-yl)quinoline] gave an IC50 of 4300 nM. In the case of `[2H]c1ccc2c(-c3cnn4cc(-c5ccc(OCCN6CCN(C)CC6)cn5)cnc34)cccc2n1` [Compound 51, 5-(6-(5-(2-(4-methylpiperazin-1-yl)ethoxy)pyridin-2-yl)pyrazolo[1,5-a]pyrimidin-3-yl)-2-^2H-quinoline], the IC50 was 11600 nM. In the case of `[2H]c1ccc2c(-c3cnn4cc(-c5ccc(N6[C@H](C)CNC[C@@H]6C)cc5)cnc34)cccc2n1` [Compound 53, 5-(6-(4-((2R,6S)-2,6-dimethylpiperazin-1-yl)phenyl)pyrazolo[1,5-a]pyrimidin-3-yl)2-^2H-quinoline], the IC50 was 390 nM. Work on `Cc1ccc2c(-c3cnn4cc(-c5ccc(N6[C@H](C)CNC[C@@H]6C)cc5)cnc34)cccc2n1` [Compound 54, 5-(6-(4-((2R,6S)-2,6-dimethylpiperazin-1-yl)phenyl)pyrazolo[1,5-a]pyrimidin-3-yl)-2-methylquinoline] yielded an IC50 of 118 nM. Compound `[2H]c1ccc2c(-c3cnn4cc(-c5ccc(OCCN6CCOCC6)cn5)cnc34)cccc2n1` [Compound 55, 4-(2-((6-(3-(2-^2H-quinolin-5-yl)pyrazolo[1,5-a]pyrimidin-6-yl)pyridin-3-yl)oxy)ethyl)morpholine] has an IC50 of 3960 nM. In the case of `Cc1ccc2c(-c3cnn4cc(-c5ccc(OCCN6CCOCC6)cn5)cnc34)cccc2n1` [Compound 56, 4-(2-((6-(3-(2-methylquinolin-5-yl)pyrazolo[1,5-a]pyrimidin-6-yl)pyridin-3-yl)oxy)ethyl)morpholine], the IC50 was 16500 nM. In the case of `[2H]c1ccc2c(-c3cnn4cc(-c5ccc(OC(C)(C)CN6CCCCC6)cn5)cnc34)cccc2n1` [Compound 57, 5-(6-(5-((2-methyl-1-(piperidin-1-yl)propan-2-yl)oxy)pyridin-2-yl)pyrazolo[1,5-a]pyrimidin-3-yl)-2-^2H-quinoline], the IC50 was 1530 nM. Compound `Cc1ccc2c(-c3cnn4cc(-c5ccc(OC(C)(C)CN6CCCCC6)cn5)cnc34)cccc2n1` [Compound 58, 2-methyl-5-(6-(5-((2-methyl-1-(piperidin-1-yl)propan-2-yl)oxy)pyridin-2-yl)pyrazolo[1,5-a]pyrimidin-3-yl)quinoline] has an IC50 of 226 nM. In the case of `[2H]c1ccc2c(-c3cnn4cc(-c5ccc(OC6CCN(C)CC6)cn5)cnc34)cccc2n1` [Compound 59, 5-(6-(5-((1-methylpiperidin-4-yl)oxy)pyridin-2-yl)pyrazolo[1,5-a]pyrimidin-3-yl)-2-^2H-quinoline], the IC50 was 5860 nM. Work on `Cc1ccc2c(-c3cnn4cc(-c5ccc(OC6CCN(C)CC6)cn5)cnc34)cccc2n1` [Compound 60, 2-methyl-5-(6-(5-((1-methylpiperidin-4-yl)oxy)pyridin-2-yl)pyrazolo[1,5-a]pyrimidin-3-yl)quinoline] yielded an IC50 of 801 nM. Compound `[2H]c1ccc2c(-c3cnn4cc(-c5ccc(OC6CCNCC6)cn5)cnc34)cccc2n1` [Compound 61, 5-(6-(5-(piperidin-4-yloxy)pyridin-2-yl)pyrazolo[1,5-a]pyrimidin-3-yl)-2-^2H-quinoline] has an IC50 of 5390 nM. For `Cc1ccc2c(-c3cnn4cc(-c5ccc(OC6CCNCC6)cn5)cnc34)cccc2n1` [Compound 62, 2-methyl-5-(6-(5-(piperidin-4-yloxy)pyridin-2-yl)pyrazolo[1,5-a]pyrimidin-3-yl)quinoline], the IC50 was 1890 nM. For `[2H]c1ccc2c(-c3cnn4cc(-c5ccc(O[C@@H]6CCNC6)cn5)cnc34)cccc2n1` [Compound 63, (R)-5-(6-(5-(pyrrolidin-3-yloxy)pyridin-2-yl)pyrazolo[1,5-a]pyrimidin-3-yl)-2-^2H-quinoline], the IC50 was 1540 nM. For `Cc1ccc2c(-c3cnn4cc(-c5ccc(O[C@@H]6CCNC6)cn5)cnc34)cccc2n1` [Compound 64, (R)-2-methyl-5-(6-(5-(pyrrolidin-3-yloxy)pyridin-2-yl)pyrazolo[1,5-a]pyrimidin-3-yl)quinoline], the IC50 was 559 nM. For `[2H]c1ccc2c(-c3cnn4cc(-c5ccc(O[C@H]6CCNC6)cn5)cnc34)cccc2n1` [Compound 65, (S)-5-(6-(5-(pyrrolidin-3-yloxy)pyridin-2-yl)pyrazolo[1,5-a]pyrimidin-3-yl)-2-^2H-quinoline], the IC50 was 3070 nM. `Cc1ccc2c(-c3cnn4cc(-c5ccc(O[C@H]6CCNC6)cn5)cnc34)cccc2n1` [Compound 66, (S)-2-methyl-5-(6-(5-(pyrrolidin-3-yloxy)pyridin-2-yl)pyrazolo[1,5-a]pyrimidin-3-yl)quinoline] showed an IC50 of 583 nM. For `COc1ccc2c(-c3cnn4cc(-c5ccc(N6[C@H](C)CNC[C@@H]6C)cc5)cnc34)cccc2n1` [Compound 67, 5-(6-(4-((2S,6R)-2,6-dimethylpiperazin-1-yl)phenyl)pyrazolo[1,5-a]pyrimidin-3-yl)-2-methoxyquinoline], the IC50 was 2800 nM.
